Laboratory results from PubChem BioAssay AID1347056 (Sanford-Burnham Center for Chemical Genomics, 2019).
Only a part is listed here, and it is no random draw. Calls of active or inactive are those of the source.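 How the source made its calls: active means compounds whose plate-normalised and pattern-corrected inhibition of the luciferase reporter signal at the single screening dose is 50% or more; inactive means the rest.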

Assay: TROY pathway blockers in reporter cells – Q293 LMP1-TROYcd cells, NF-kB luciferase, uHTS, primary screen (AID 1347056)
Conditions: 4 h, at 10 µM, hits give high values

Row | Compound | inhibition
1 | O=[N+]([O-])c1cc(Oc2ccc([N+](=O)[O-])cc2C(F)(F)F)cc([N+](=O)[O-])c1 | inactive: -12.4%
2 | COc1ccc(N/C(=N/P(=O)(N2CCOCC2)N2CCOCC2)N2CCOCC2)cc1 | inactive: -16.4%
3 | Cc1c2c(nc3ccccc13)SC(C(Cl)Cl)C2 (configuration not stated) | inactive: -20.7%
4 | O=C(OC1CN2CCC1CC2)C12CC3CC(CC(C3)C1)C2 (configuration not stated) | inactive: 1.47%
5 | Cc1cc(=O)[nH]c(N[N+](=O)[O-])n1 | inactive: 3.41%
6 | O=P1(N(CCCl)CCCl)Nc2ccccc2N1 | inactive: -37.1%
7 | O=P1(N(CCCl)CCCl)OCCCN1CCCl (configuration not stated) | inactive: -3.44%
8 | COc1ccc2nc(NP(=O)(c3ccccc3)c3ccccc3)sc2c1 | inactive: 1.21%
9 | COc1cc(I)ccc1[As](=O)(O)O | inactive: -10.8%
10 | ClCCSc1nnc(-c2cccnc2)o1 | inactive: -44.4%
11 | COC(=O)C1(C)COP(=O)(N2CCCCCC2)OC1 (configuration not stated) | inactive: 3.87%
12 | CC(C)c1ccc(OP(=O)(Nc2ccccn2)Oc2ccccc2F)cc1 (configuration not stated) | inactive: -3.89%
13 | CC(C)NC(=O)NP(=O)(Oc1ccccc1)Oc1ccccc1 | inactive: 2.81%
14 | O=C(OC1CN2CCC1CC2)c1cccc2[nH]cnc12 (configuration not stated) | inactive: -3.77%
15 | CCN(CC)C(=S)SC(NC=O)C(Cl)(Cl)Cl (configuration not stated) | inactive: 4.65%
16 | O=[N+]([O-])c1cc([N+](=O)[O-])c(-c2ccn[nH]2)s1 | inactive: -2.48%
17 | C[As](=O)(O)c1cccc(C(=O)O)c1 | inactive: -2.09%
18 | O=[As](O)(c1ccc(O)cc1)c1ccccc1O | inactive: -1.86%
19 | O=[N+]([O-])c1ccc(-c2cc([N+](=O)[O-])c(O)c([N+](=O)[O-])c2)cc1 | inactive: -10.8%
20 | COc1cc(C(=O)NCC2(N3CCOCC3)CCCCC2)ccc1OCC(C)C | inactive: -1.87%
21 | [N-]=[N+]=NC1CCCCC1NC(=O)c1cc([N+](=O)[O-])cc([N+](=O)[O-])c1 (configuration not stated) | inactive: -14.8%
22 | Cc1ccc(OP(=O)(Nc2ccc([N+](=O)[O-])cn2)Oc2ccc(C)cc2)cc1 | inactive: 10.3%
23 | Cc1ccc2nc3c(c(C)c2c1)CC(C(Cl)Cl)S3 (configuration not stated) | inactive: -90.8%
24 | CCOC(=O)Nc1cccc([As](=O)(O)O)c1 | inactive: 0.97%
25 | O=P(Nc1ccccn1)(c1cccc2ccccc12)c1cccc2ccccc12 | inactive: -16%
26 | Cc1cc(SC(NC=O)C(Cl)(Cl)Cl)ncn1 (configuration not stated) | inactive: -1.67%
27 | O=[N+]([O-])c1ccc(Nc2ccc(Oc3ccc([N+](=O)[O-])cc3[N+](=O)[O-])cc2)c([N+](=O)[O-])c1 | inactive: 18.2%
